These results are taken from patent US7550506B2, “Amino acid derived prodrugs of propofol, compositions and uses thereof” (XenoPort, Inc., priority 2004, dated 2009).

For one data set, the system named is pancreatin. The conditions noted are these: 1% (w/v) pancreatin, substrate 5.0 μM, pH 7.5, 37° C. How it is done:
(§1) The stability of propofol prodrugs were evaluated in one or more in vitro systems using a variety of tissue preparations following methods known in the art. Tissues were obtained from commercial sources (e.g., Pel-Freez Biologicals, Rogers, Ark., or GenTest Corporation, Woburn, Mass.). Experimental conditions used for the in vitro studies are described in Table 1 below. Each preparation was incubated with test compound at 37° C. for one hour. Aliquots (50 μL) were removed at 0, 30, and 60 min and quenched with 0.1% trifluoroacetic acid in acetonitrile. Samples were then centrifuged and analyzed by LC/MS/MS (see Example 134 below for method details). Stability of drug conjugates towards specific enzymes (e.g., peptidases, etc.) were also assessed in vitro by incubation with the purified enzyme.
Pancreatin Stability: Stability studies were conducted by incubating conjugate (5 μM) with 1% (w/v) pancreatin (Sigma, P-1625, from porcine pancreas) in 0.025 M Tris buffer containing 0.5 M NaCl (pH 7.5) at 37° C. for 60 min. The reaction was stopped by addition of 2 volumes of methanol. After centrifugation at 14,000 rpm for 10 min, the supernatant was removed and analyzed by LC/MS/MS.

The conditions of data set [1]: substrate 2.0 μM, 37° C. On the procedure: as §1

As to “H-Ala-Thr(γ-OC(O)OPropofol)-OH Hydrochloride [(16)]”, the “% of Propofol Released from Propofol Prodrugs after 60 min, Pancreatin” value in the data set on pancreatin amounted to 25%. In addition, in data set [1] (no cofactors), the “% of Propofol Released from Propofol Prodrugs after 60 min, Human Plasma” value was 4%. Besides, in data set [1] (NADPH), the “% of Propofol Released from Propofol Prodrugs after 60 min, Human Liver S9 (0.5 mg/mL)” value was determined as 22%.
